This is a selection; strong and weak results do not stand in their true shares. The source made the active and inactive calls.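 The calls were made as follows: active = inhibition above about 50% (limit read from the data); inactive = the rest.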
Each molecule was assayed on calpain II (m-calpain), Sus scrofa (assay: inhibitors of pig calpain II, primary screen, biochemical, fluorogenic peptide substrate, 1536-well (AID 1236)). Details: purified calpain II, 30 min, at 16 µM, active compounds read high.
In the case of `COc1ccc(NC2CCN(CCc3ccccc3)CC2)c(OC)c1`, the inhibition is reported as inactive: 23.9%. In the case of `CCOc1ccc(C)cc1CN(CCCl)CCCl`, the inhibition is reported as inactive: 3.36%. For `Cc1ccc(OCC(C)C)c(CN(CCCl)CCCl)c1`, the inhibition was inactive: 23.4%. With `COc1ccc(C(=O)NCC2(N3CCCCC3)CCCCC2)c(OC)c1OC` the inhibition was inactive: 0.42%. For `O=C(OC1CN2CCC1CC2)C1c2ccccc2Oc2ccccc21` (centres undefined), the inhibition was inactive: 17.6%. In the case of `N#CC1(Nc2ccccc2)CCN(Cc2ccccc2)CC1`, the inhibition is reported as inactive: 4.91%. In the case of `CCOC(=O)N1CCC(Nc2ccc(OC)cc2)CC1`, the inhibition is reported as inactive: 11.9%. For `O=C(NCC1(N2CCOCC2)CCCCC1)c1cc2ccccc2o1`, the inhibition was inactive: -9.59%. For `CC(C)c1ccc(NC2CCN(C(=O)OC(C)(C)C)CC2)cc1`, the inhibition was inactive: 7.52%. With `CN(C)c1cccc(C(=O)NCC2(N3CCCCC3)CCCCC2)c1` the inhibition was inactive: -43%. With `COc1ccc(CN(CCCl)CCCl)cc1Cl` the inhibition was inactive: -35.6%. For `N#CC1(Nc2ccccc2)CCN(CCc2ccccc2)CC1`, the inhibition was inactive: -18.7%. `O=C(NCC1(N2CCCCC2)CCCCC1)c1cccc([N+](=O)[O-])c1` was tested, and the inhibition was inactive: -17.7%. For `O=C(NCC1(N2CCOCC2)CCCCC1)c1cc(=O)[nH]c2ccccc12`, the inhibition was inactive: 16.4%. For `CN1CCN(CCOC(=O)C(O)(c2ccccc2)c2ccccc2)CC1`, the inhibition was inactive: -7.12%. In the case of `COc1ccc(NC2CCN(C(=O)OC(C)(C)C)CC2)cc1`, the inhibition is reported as inactive: 14.7%. `N#Cc1ccc(C(=O)NCC2(N3CCCCC3)CCCCC2)cc1` was tested, and the inhibition was inactive: -10.5%. With `c1ccc(CN2CCC(Nc3ccccc3)CC2)cc1` the inhibition was inactive: 0.74%. `COc1ccc(C(=O)NCC2(N3CCOCC3)CCCCC2)cc1OC` was tested, and the inhibition was inactive: -16.1%. `O=C(OC1CN2CCC1CC2)C1c2ccccc2C=Cc2ccccc21` (centres undefined) was tested, and the inhibition was inactive: -13.9%. With `N/C(=N\O)c1c(N)no[n+]1[O-]` the inhibition was inactive: -12.6%. `CC(C)(C)OC(=O)N1CCC(Nc2ccccc2)CC1` was tested, and the inhibition was inactive: 23.1%. For `CCOc1ncccc1C(=O)NCC1(N2CCOCC2)CCCCC1`, the inhibition was inactive: 11.8%. For `CCCOc1ccc(C)cc1CN(CCCl)CCCl`, the inhibition was inactive: -13.4%. In the case of `COc1cc(OC)cc(C(=O)NCC2(N3CCOCC3)CCCCC2)c1`, the inhibition is reported as inactive: -3.04%. With `CCC(CO)(C(=O)OC1CN2CCC1CC2)c1ccccc1` (centres undefined) the inhibition was inactive: 0.19%. In the case of `Fc1ccccc1NC1CCN(Cc2ccccc2)CC1`, the inhibition is reported as inactive: -7.13%. For `CN(C)c1ccc(C(=O)NCC2(N3CCCCC3)CCCCC2)cc1`, the inhibition was inactive: -20.3%. With `CCN1CCC(Nc2cccc(F)c2)CC1` the inhibition was inactive: 13.5%.
